Results on 3 compounds are retold here after PubChem BioAssay AID425 (Sanford-Burnham Center for Chemical Genomics, 2006).

Sequences of proteins named here, by UniProt entry; tags and fusion partners are left off.
UniProt Q64346, whole entry: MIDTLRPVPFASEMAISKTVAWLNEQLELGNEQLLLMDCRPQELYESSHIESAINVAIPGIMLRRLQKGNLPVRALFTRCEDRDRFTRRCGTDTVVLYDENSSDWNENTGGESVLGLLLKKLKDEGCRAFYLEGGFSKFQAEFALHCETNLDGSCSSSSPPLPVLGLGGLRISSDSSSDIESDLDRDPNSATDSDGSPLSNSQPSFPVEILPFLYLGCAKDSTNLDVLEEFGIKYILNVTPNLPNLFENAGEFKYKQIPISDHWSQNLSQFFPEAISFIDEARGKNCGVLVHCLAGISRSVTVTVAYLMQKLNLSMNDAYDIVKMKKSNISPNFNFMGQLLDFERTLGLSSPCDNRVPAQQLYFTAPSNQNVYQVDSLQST

Only a part is listed here, and it is no random draw. Results with a measured potency or affinity are listed apart. Some results for these compounds are left out of this collection, so the calls shown say nothing about other tests. Calls of active or inactive are those of the source. No stated cut-off is given here; in the data, active means inhibition above about 50%; inactive means the rest.

The target of the experiment is Dual specificity protein phosphatase 6 (Rattus norvegicus) (UniProt Q64346). Nature of the experiment: inhibition of rat DUSP6 enzyme activity – biochemical, in vitro, primary screen (AID 425).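 Further: plate controls were vehicle for no effect and reference inhibitor for full effect.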 The conditions noted are these: recombinant MKP-3 phosphatase activity, fluorescence; at 20 µM; active compounds read high.
Broadly, the inhibition is the relative decrease from the control value, in per cent. Take `COc1ccc(OC)c(C=C(C#N)C#N)c1`: the inhibition is inactive: -0.7%. With `O=C(OC1CN2CCC1CC2)C(CO)(c1ccccc1)c1ccccc1` (stereo not drawn), the inhibition was inactive: -3%. As for `CN(C)c1cccc(C(=O)NCC2(N(C)C)CCCCC2)c1`, the inhibition is inactive: -10.2%.
